Laboratory results reported in patent US11656182B2, “Method, composition, and chip for detecting analyte in blood sample” (TERUMO KABUSHIKI KAISHA, priority 2016, dated 2023).

Assay: Degree of solubility with respect to water at 20° C.
Type: physicochemical

SMILES | Degree of solubility (class)
COc1cc([N+](=O)[O-])ccc1-n1nc(-c2ccc(S(=O)(=O)[O-])cc2S(=O)(=O)[O-])n[n+]1-c1ccc([N+](=O)[O-])cc1.[Na+] [Wst-8, 2-(2-methoxy-4-nitrophenyl)-3-(4-nitrophenyl)-5-(2,4-disulfophenyl)-2H-tetrazolium sodium salt, reference compound] | ×
O=[N+]([O-])c1ccc(-[n+]2nc(-c3ccc(S(=O)(=O)[O-])cc3S(=O)(=O)[O-])nn2-c2ccc(I)cc2)cc1.[Na+] [Wst-1, 2-(4-iodophenyl)-3-(4-nitrophenyl)-5-(2,4-disulfophenyl)-2H-tetrazolium sodium salt, reference compound] | ×
